In one assay the target is T1, MLKL (full length) (Homo sapiens, UniProt Q8NB16).
T1 construct: purchased DiscoverX (KINOMEscan service); host or cells: E. coli BL21-derived (T7 phage) or HEK293
T1 sequence (Q8NB16 1-471): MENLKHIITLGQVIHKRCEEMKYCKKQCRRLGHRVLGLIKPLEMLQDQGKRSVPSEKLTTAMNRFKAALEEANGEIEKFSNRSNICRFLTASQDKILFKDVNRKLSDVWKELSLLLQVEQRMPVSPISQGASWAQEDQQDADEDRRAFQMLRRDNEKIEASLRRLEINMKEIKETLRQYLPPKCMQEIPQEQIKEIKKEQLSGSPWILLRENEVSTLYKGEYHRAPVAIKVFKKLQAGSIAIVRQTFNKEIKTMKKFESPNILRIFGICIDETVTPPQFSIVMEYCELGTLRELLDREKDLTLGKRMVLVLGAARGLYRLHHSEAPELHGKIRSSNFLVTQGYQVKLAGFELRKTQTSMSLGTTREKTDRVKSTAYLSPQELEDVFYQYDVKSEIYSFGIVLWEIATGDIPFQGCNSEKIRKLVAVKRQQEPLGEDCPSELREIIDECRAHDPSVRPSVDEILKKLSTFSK
As to the kind of experiment: KINOMEscan binding assay, MLKL. To be noted: equilibrium dissociation constant, class symbols.

Chains of the proteins cited; added tags and fusions are not shown. Lines headed by an entry give the natural chain unless they say otherwise; changes in a name come on top.
UniProt Q9Y572: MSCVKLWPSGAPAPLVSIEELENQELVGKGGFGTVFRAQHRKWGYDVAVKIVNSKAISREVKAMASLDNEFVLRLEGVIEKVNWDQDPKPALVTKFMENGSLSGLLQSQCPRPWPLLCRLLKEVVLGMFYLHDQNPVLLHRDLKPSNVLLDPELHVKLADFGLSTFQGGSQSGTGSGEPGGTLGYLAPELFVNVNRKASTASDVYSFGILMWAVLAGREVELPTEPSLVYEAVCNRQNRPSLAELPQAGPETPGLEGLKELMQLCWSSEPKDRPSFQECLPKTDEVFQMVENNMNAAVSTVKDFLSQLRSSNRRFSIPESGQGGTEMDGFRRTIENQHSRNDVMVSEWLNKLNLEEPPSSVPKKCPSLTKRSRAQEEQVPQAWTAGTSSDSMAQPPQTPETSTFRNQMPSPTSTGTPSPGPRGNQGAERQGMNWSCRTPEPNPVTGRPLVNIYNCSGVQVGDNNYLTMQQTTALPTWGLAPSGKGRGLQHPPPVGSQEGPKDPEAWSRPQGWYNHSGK

In assay [1] the test system is U937 human histiocytic leukemia cell line. As to the kind of experiment: Inhibition of TSQ induced necroptosis, 384 well plate format (CellTitre-Glo). To be noted: U-937, U937 cells, TSQ cocktail (TNF, Smac mimetic, Q-VD-OPh), CelltiterGlo, read-out: Inhibition of TSQ-induced necroptosis (IC50 cell-based assay). As for the experimental part: […] ASSAY: Screening compounds for inhibition of TSQ induced necroptosis, 384 well plate format.
Cell Line ID: U937 human histiocytic leukemia cell line.
Cell Concentration (cells/well): Final cell density is 20000 cells per well.
Cell growth medium: HT-RPMI medium+7.4% Fetal Bovine Serum (FBS). Cells are cultured in Corning 150 cm^2 tissue culture flasks with vented caps at 37° C./5% CO2.
Incubation: Plates were incubated at 37° C./5% CO2 in a humidified incubator for 48 hours following addition of compounds and death stimuli (TSQ cocktail).
Compound concentration: 36 μM starting concentration, 1:3 dilution, 10 point
DMSO final concentration (% v/v): 0.3%.
Compounds in TSQ cocktail (T: TNF; S: Smac mimetic; Q: Q-VD-OPh) and their final concentrations:
hTNF-Fc (100 ng/ml)—produced by standard procedures as shown in Bossen et al., J Biol Chem, 2006, 281(20), 13964-13971. […]
The cellular assay was carried out according to the following steps: • 1. […] Read luminescence readout on a plate reader. […]
Percent viability was calculated for each compound according to equation (2):
[formula] • wherein • RawData is the readout of any cell containing a compound of the invention • TA is the total activity provided by the luminescence readout from DMSO only wells (columns 2 and 24)=100% viability • NSA is the non-specific activity provided by DMSO+TSQ wells (columns 1 and 23)=0% viability […]
On the technique in general: ATP-based viability assays read luminescence as a measure of living cells.

A further assay deals with T2, RIP1 (Homo sapiens, UniProt Q13546).
T2 construct: purchased DiscoverX (KINOMEscan service); host or cells: E. coli BL21-derived (T7 phage) or HEK293
T2 sequence (Q13546 1-671): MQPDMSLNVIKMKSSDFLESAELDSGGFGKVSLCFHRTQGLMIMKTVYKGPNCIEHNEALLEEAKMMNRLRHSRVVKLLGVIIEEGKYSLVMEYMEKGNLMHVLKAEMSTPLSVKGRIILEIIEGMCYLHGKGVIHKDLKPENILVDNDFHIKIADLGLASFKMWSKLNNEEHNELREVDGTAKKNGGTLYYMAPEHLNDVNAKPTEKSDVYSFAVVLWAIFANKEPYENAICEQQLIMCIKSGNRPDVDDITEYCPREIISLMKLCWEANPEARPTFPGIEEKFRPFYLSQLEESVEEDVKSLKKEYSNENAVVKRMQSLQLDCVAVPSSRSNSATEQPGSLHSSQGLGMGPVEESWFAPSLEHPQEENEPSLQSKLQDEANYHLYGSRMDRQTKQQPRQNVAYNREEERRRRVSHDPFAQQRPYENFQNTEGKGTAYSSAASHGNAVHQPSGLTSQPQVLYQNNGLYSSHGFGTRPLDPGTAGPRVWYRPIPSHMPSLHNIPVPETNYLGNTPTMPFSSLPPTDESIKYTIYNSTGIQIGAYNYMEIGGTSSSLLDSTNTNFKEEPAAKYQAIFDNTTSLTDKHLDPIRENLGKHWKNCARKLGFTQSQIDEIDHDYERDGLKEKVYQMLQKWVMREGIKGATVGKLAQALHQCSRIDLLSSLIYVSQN
As to the kind of experiment: KINOMEscan binding assay, RIP1. To be noted: equilibrium dissociation constant, class symbols.

For a further assay, the target named is T3, RIP3 (Homo sapiens, UniProt Q9Y572).
T3 construct: purchased DiscoverX (KINOMEscan service); host or cells: E. coli BL21-derived (T7 phage) or HEK293
Description: KINOMEscan binding assay, RIP3. As to conditions: equilibrium dissociation constant, class symbols.

The Kd is a measure of binding affinity in units of concentration. The term IC50 denotes the concentration that gives 50% inhibition.

Turning to `COCC(Oc1cc(-c2n[nH]c(Nc3cc(C)on3)c2C(N)=O)ccc1NS(=O)(=O)C(F)F)c1ccc(F)cc1` (racemic) [Compound 298, 3-(4-((difluoromethyl)sulfonamido)-3-(1-(4-fluorophenyl)-2-methoxyethoxy)phenyl)-5-((5-methylisoxazol-3-yl)amino)-1H-pyrazole-4-carboxamide], at MLKL (full length), the Kd is less than 0.01 µM. Besides, in assay [1], the IC50 was less than 0.01 µM.
`Cc1cc(Nc2[nH]nc(-c3ccc(NS(=O)(=O)CC(F)(F)F)c(O[C@@H](C)c4ccc(F)cc4)c3)c2C(N)=O)no1` [Compound 311, (S)-3-(3-(1-(4-fluorophenyl)ethoxy)-4-((2,2,2-trifluoroethyl)sulfonamido)phenyl)-5-((5-methylisoxazol-3-yl)amino)-1H-pyrazole-4-carboxamide]: the Kd was less than 0.01 µM at MLKL (full length), more than 30 µM on RIP1 and more than 30 µM at RIP3.
Consider `C[C@H](Oc1cc(-c2n[nH]c(Nc3cnc(C(C)(C)C)cn3)c2C(N)=O)ccc1NS(=O)(=O)C(F)F)c1ccc(F)cc1` [Compound 312, (S)-5-((5-(tert-butyl)pyrazin-2-yl)amino)-3-(4-((difluoromethyl)sulfonamido)-3-(1-(4-fluorophenyl)ethoxy)phenyl)-1H-pyrazole-4-carboxamide], for which the Kd is less than 0.01 µM on MLKL (full length), more than 30 µM at RIP1 and more than 30 µM at RIP3.
In the case of `NC(=O)c1c(-c2ccc(NS(=O)(=O)C(F)F)c(OCc3ncco3)c2)n[nH]c1Nc1cnccn1` [Compound 313, 3-(4-((difluoromethyl)sulfonamido)-3-(oxazol-2-ylmethoxy)phenyl)-5-(pyrazin-2-ylamino)-1H-pyrazole-4-carboxamide], the results for the Kd at MLKL (full length), at RIP1 and on RIP3 were less than 0.01 µM, more than 30 µM and more than 30 µM, respectively.
For `CCS(=O)(=O)Nc1ccc(-c2n[nH]c(Nc3ccc(C(=O)O)cn3)c2C(N)=O)cc1O[C@@H](C)c1ccc(F)cc1` [Compound 315, (S)-6-((4-carbamoyl-3-(4-(ethylsulfonamido)-3-(1-(4-fluorophenyl)ethoxy)phenyl)-1H-pyrazol-5-yl)amino)nicotinic acid], the Kd at MLKL (full length) is less than 0.01 µM; on RIP1, more than 30 µM; at RIP3, more than 30 µM.
Take `C[C@H](Oc1cc(-c2n[nH]c(Nc3cnc(C4CC4)cn3)c2C(N)=O)ccc1NS(=O)(=O)C(F)F)c1ccc(F)cc1` [Compound 316, (S)-5-((5-cyclopropylpyrazin-2-yl)amino)-3-(4-((difluoromethyl)sulfonamido)-3-(1-(4-fluorophenyl)ethoxy)phenyl)-1H-pyrazole-4-carboxamide]: the figures for the Kd on MLKL (full length), at RIP1 and on RIP3 were less than 0.01 µM, more than 30 µM and more than 30 µM, respectively.
Turning to `CCS(=O)(=O)Nc1ccc(-c2n[nH]c(Nc3cc(C)on3)c2C(N)=O)cc1O[C@@H](C)c1ccc(F)cc1` [Compound 317, (S)-3-(4-(ethylsulfonamido)-3-(1-(4-fluorophenyl)ethoxy)phenyl)-5-((5-methylisoxazol-3-yl)amino)-1H-pyrazole-4-carboxamide], the Kd on MLKL (full length) is less than 0.01 µM; on RIP1 it was more than 30 µM; on RIP3, more than 30 µM.
Turning to `C[C@H](Oc1cc(-c2n[nH]c(Nc3cc4n(n3)CCCN(C)C4)c2C(N)=O)ccc1NS(=O)(=O)C(F)F)c1ccc(F)cc1` [Compound 318, (S)-3-(4-((difluoromethyl)sulfonamido)-3-(1-(4-fluorophenyl)ethoxy)phenyl)-5-((5-methyl-5,6,7,8-tetrahydro-4H-pyrazolo[1,5-a][1,4]diazepin-2-yl)amino)-1H-pyrazole-4-carboxamide], the Kd on MLKL (full length) was less than 0.01 µM; at RIP1 it was more than 30 µM; at RIP3 it was more than 30 µM.
On to `COCC(Oc1cc(-c2n[nH]c(Nc3cnccn3)c2C(N)=O)ccc1NS(=O)(=O)C(F)F)c1ccc(F)cc1` (centres unmarked) [Compound 319, 3-(4-((difluoromethyl)sulfonamido)-3-(1-(4-fluorophenyl)-2-methoxyethoxy)phenyl)-5-(pyrazin-2-ylamino)-1H-pyrazole-4-carboxamide], for which the Kd at MLKL (full length) is less than 0.01 µM; at RIP1, more than 30 µM; at RIP3 it was more than 30 µM.
Regarding `Cc1cc(Nc2c(C(N)=O)c(-c3ccc(NS(=O)(=O)C(F)F)c(O[C@@H](C)c4ccc(F)cc4)c3)nn2C)no1` [Compound 320, (S)-3-(4-((difluoromethyl)sulfonamido)-3-(1-(4-fluorophenyl)ethoxy)phenyl)-1-methyl-5-((5-methylisoxazol-3-yl)amino)-1H-pyrazole-4-carboxamide], the Kd at MLKL (full length) is less than 0.01 µM; on RIP1 it was more than 30 µM; on RIP3, more than 30 µM.

The record behind these values is patent US12583836B2 (Anaxis Pharma Pty Ltd, priority 2020, dated 2026).
